The record followed here is patent publication US20050197338A1, “Substituted pyrazole urea compounds for the treatment of inflammation” (priority 2003, published 2005).

Chains of the proteins cited; added tags and fusions are not shown.
UniProt O14920, whole entry: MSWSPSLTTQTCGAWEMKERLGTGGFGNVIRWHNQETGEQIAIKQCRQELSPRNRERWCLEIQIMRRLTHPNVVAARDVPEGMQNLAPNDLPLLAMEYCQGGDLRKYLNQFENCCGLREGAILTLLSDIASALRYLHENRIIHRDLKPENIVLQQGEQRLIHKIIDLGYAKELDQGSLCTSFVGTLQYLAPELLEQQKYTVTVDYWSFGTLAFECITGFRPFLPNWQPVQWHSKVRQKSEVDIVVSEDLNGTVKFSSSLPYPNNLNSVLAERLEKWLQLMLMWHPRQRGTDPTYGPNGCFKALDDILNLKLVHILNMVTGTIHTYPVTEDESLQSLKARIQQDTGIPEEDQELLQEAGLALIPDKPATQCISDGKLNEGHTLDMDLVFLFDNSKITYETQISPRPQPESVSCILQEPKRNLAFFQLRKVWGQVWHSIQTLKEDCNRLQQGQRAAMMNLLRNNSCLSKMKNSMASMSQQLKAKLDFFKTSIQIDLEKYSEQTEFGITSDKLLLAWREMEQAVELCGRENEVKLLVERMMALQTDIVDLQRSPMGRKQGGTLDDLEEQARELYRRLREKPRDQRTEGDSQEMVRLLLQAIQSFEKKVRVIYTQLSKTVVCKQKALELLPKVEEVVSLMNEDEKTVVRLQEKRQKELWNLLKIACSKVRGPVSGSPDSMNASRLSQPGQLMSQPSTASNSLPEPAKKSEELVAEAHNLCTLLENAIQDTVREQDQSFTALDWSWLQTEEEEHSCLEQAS

In general, IC50 refers to the concentration needed to halve the response being measured.

SMILES strings stand for the structures.

This test deals with human IKK-2 (rhIKK-2 homodimer) (Homo sapiens, UniProt O14920). Put plainly: IKK-2 Resin Enzyme Assay (Human IKK-2 Enzyme Assay). The conditions noted are these: read-out: IC50 (μM) hIKK-2; human IKK-2, resin enzyme assay. Format: biochemical. From the text: Materials: SAM^2™96 Biotin capture plates were from Promega. Anti-FLAG affinity resin, FLAG-peptide, NP-40 (Nonidet P-40), BSA, ATP, ADP, AMP, LPS (E. coli serotype 0111:B4), and dithiothreitol were obtained from Sigma Chemicals. Antibodies specific for NEMO (IKK-γ) (FL-419), IKK-1 (H-744), IKK-2(H-470) and IκBa(C-21) were purchased from Santa Cruz Biotechnology. Ni-NTA resin was purchased from Qiagen. Peptides were purchased from American Peptide Company. Protease inhibitor cocktail tablets were from Boehringer Mannheim. Sephacryl S-300 column was from Pharmacia LKB Biotechnology. Centriprep-10 concentrators with a molecular weight cutoff of 10 kDa and membranes with molecular weight cut-off of 30 kDa were obtained from Amicon. [γ-^33P] ATP (2500 Ci/mmol) and [γ-^32P] ATP (6000 Ci/mmol) were purchased from Amersham. The other reagents used were of the highest grade commercially available.
Cloning and Expression: cDNAs of human IKK-1 and IKK-2 were amplified by reverse transcriptase-polymerase chain reaction from human placental RNA (Clonetech). hlKK-1 was subcloned into pFastBac HTa (Life Technologies) and expressed as N-terminal His6-tagged fusion protein. The hlKK-2 cDNA was amplified using a reverse oligonucleotide primer which incorporated the peptide sequence for a FLAG-epitope tag at the C-terminus of the IKK-2 coding region (DYKDDDDKD). The hlKK-2:FLAG cDNA was subcloned into the baculovirus vector pFastBac. The rhIKK-2 ([…]) mutant was constructed in the same vector used for wild type rhIKK-2 using a QuikChange™ mutagenesis kit (Stratagene). Viral stocks of each construct were used to infect insect cells grown in 40 L suspension culture. […] Cell lysates were stored at −80° C. until purification of the recombinant proteins was undertaken as described below.
Enzyme Isolation: All purification procedures were carried out at 4° C. unless otherwise noted. Buffers used are: buffer A: 20 mM Tris-HCl, pH 7.6, containing 50 mM NaCl, 20 mM NaF, 20 mM β-Glycerophosphate, 500 μM sodium orthovanadate, 2.5 mM metabisulfite, 5 mM benzamidine, 1 mM EDTA, 0.5 mM EGTA, 10% glycerol, 1 mM DTT, 1× Complete™ protease inhibitors; buffer B: same as buffer A, except 150 mM NaCl, and buffer C: same as buffer A, except 500 mM NaCl.
Isolation of rhIKK-2 homodimer: A 10-liter culture of baculovirus-expressing IKK-2 tagged with FLAG peptide was centrifuged and the cell pellet (MOI=0.1 and 1=72 h) was re-suspended in buffer A. These cells were microfluidized, and centrifuged at 100,000×g for 45 min. Supernatant was passed over a G-25 column equilibrated with Buffer A. Protein peak was collected and incubated with anti-FLAG affinity resin on a rotator overnight in buffer B. The resin was washed in batch with 10-15 bed volumes of buffer C. Washed resin was poured into a column and rhIKK-2 homodimer was eluted using 5 bed volumes of buffer B containing FLAG peptide. 5 mM DTT, 0.1% NP-40 and BSA (concentrated to 0.1% in final amount) was added to the eluted enzyme before concentrating in using an Amicon membrane with a molecular weight cut-off of 30 kDa. Enzyme was aliquoted and stored at −80° C.
IKK-2 Resin Enzyme Assay: IKK-2 kinase activity was measured using a biotinylated IκBα peptide (Gly-Leu-Lys-Lys-Glu-Arg-Leu-Leu-Asp-Asp-Arg-His-Asp-Ser32-Gly-Leu-Asp-Ser36-Met-Lys-Asp-Glu-Glu) (American Peptide Co.). 20 μL of the standard reaction mixture contained 5 μM biotinylated IκBα peptide, 0.1 μCi/reaction [γ-^33P] ATP (Amersham) (about 1×10^5 cpm), 1 μM ATP (Sigma), 1 mM DTT (Sigma), 2 mM MgCl2 (Sigma), 2 mM MnCl2 (Sigma), 10 mM NaF (Sigma), 25 mM Hepes (Sigma) buffer, pH 7.6 and 20 μL enzyme solution and 10 μL inhibitor in a final volume of 50 μL. After incubation at 25° C. for 30 min, 150 μL resin (Dowex anion-exchange resin AG1X8 200-400 mesh) in 900 mM formate, pH 3.0 was added to each well to stop the reaction. Resin was allowed to settle for 1 h and 50 μL of supernatant was removed to a Micolite-2 flat bottom plate (Dynex). […]
In the case of `NC(=O)Nc1cn(-c2ccc(-c3cccc4ccccc34)cc2)nc1C(N)=O`, the IC50 was determined as 7.41 µM. For `N#CCOc1cccc(-c2cccc(-n3cc(NC(N)=O)c(C(N)=O)n3)c2)c1`, the IC50 is 1.99 µM. Next, `NC(=O)Nc1cn(-c2ccc(-c3cccc(Cl)c3)cc2)nc1C(N)=O`: 4.38 µM; `COc1ccccc1-c1ccc(-n2cc(NC(N)=O)c(C(N)=O)n2)cc1`: 1.06 µM; `NC(=O)Nc1cn(-c2ccc(-c3ccc(F)c(Cl)c3)cc2)nc1C(N)=O`: 3.95 µM. As for `COc1ccc(F)cc1-c1ccc(-n2cc(NC(N)=O)c(C(N)=O)n2)cc1`, the figure is 0.385 µM; as for `NC(=O)Nc1cn(-c2ccc3[nH]ccc3c2)nc1C(N)=O`, 0.383 µM; as for `NC(=O)Nc1cn(-c2ccc(-c3cc(F)cc(F)c3)cc2)nc1C(N)=O`, 5.81 µM. Regarding `NC(=O)Nc1cn(-c2ccc(-c3cccc(-c4ccccc4)c3)cc2)nc1C(N)=O`, the IC50 stood at 7.82 µM. Take `CNC(=O)Nc1cn(-c2ccc(-c3ccc(C(N)=O)cc3)cc2)nc1C(N)=O`: the IC50 worked out at 2.68 µM. As for `NC(=O)Nc1cn(-c2ccc(-c3ccccc3Cl)cc2)nc1C(N)=O`, the figure is 0.743 µM; as for `COc1ccc(-c2ccc(-n3cc(NC(N)=O)c(C(N)=O)n3)cc2)cc1F`, 6.99 µM; as for `NC(=O)Nc1cn(-c2cccc(-c3cccc(F)c3)c2)nc1C(N)=O`, 7.59 µM. As for `Cc1cc(F)ccc1-c1ccc(-n2cc(NC(N)=O)c(C(N)=O)n2)cc1`, the figure is 0.947 µM. As for `N#CCOc1ccc(-c2cccc(-n3cc(NC(N)=O)c(C(N)=O)n3)c2)cc1`, the figure is 1.02 µM.
